Assay results as given in ChEMBL document CHEMBL2169809, “Identification of high-affinity P2Y₁₂ antagonists based on a phenylpyrazole glutamic acid piperazine backbone” (J Med Chem, 2012).

Key:
Platelet [1] = experiment: Inhibition of ADP-stimulated platelet aggregation in human platelet rich plasma by 96-well format based turbidimetric method; assay type: functional
In short: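 Citrated (ACD-A) donor blood was spun at 150g for 15 min at room temperature to give PRP. PRP was adjusted with PPP to 3 × 10^8 platelets/mL. Compound, diluted in NaCl, was preincubated with hPRP for 5 min before ADP was added.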

Platelet [2] = experiment: Inhibition of ADP-stimulated platelet aggregation in human platelet rich plasma by light transmission aggregometry based Born method; assay type: functional, cell-based
In short: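 Buffered-citrate blood was spun at 340g for 15 min to give PRP, adjusted with PPP to 3 × 10^8 platelets/mL. ADP was then added and light transmission recorded for 6 min under the same conditions. % inhibition came from AUC; IC50 was averaged from at least triplicate runs.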

IC50 (Platelet [1]) [nM]	IC50 (Platelet [2]) [nM]	SMILES
130	–	CCOC(=O)N1CCN(C(=O)[C@H](CCNS(C)(=O)=O)NC(=O)c2cc(OCC(=O)N3CCC[C@H]3C(=O)NC3CCC3)n(-c3ccccc3)n2)CC1
–	42	O=C(O)CC[C@H](NC(=O)c1cc(OCC(=O)N2CCC[C@H]2C(=O)NC2CCC2)n(-c2ccccc2)n1)C(=O)N1CCN(C(=O)OC2CCC2)CC1
–	21	CCOC(=O)N1CCN(C(=O)[C@H](CCC(=O)O)NC(=O)c2cc(OCC(=O)N3CCC[C@H]3C(=O)NC3CCC3)n(-c3ccccc3)n2)[C@H](C)C1
290	–	CCOC(=O)N1CCN(C(=O)[C@H](CCC(=O)O)NC(=O)c2cc(OCC(=O)N3CCC[C@H]3c3ccccc3)n(-c3ccccc3)n2)CC1
